{
  "source": "patent US20120196933A1",
  "about": "“MEXILETINE PRODRUGS” (priority 2010, published 2012)",
  "key": {"in vivo": {"experiment": "in vivo", "conditions": "rat, oral 5 mg mexiletine free base equivalents/kg; for Tmax: Tmax of mexiletine", "experimental": "Test substances (i.e., mexiletine & mexiletine glutamic acid amide) were administered by oral gavage to groups of five male Sprague Dawley rats.\nBlood samples were taken at various times after administration and submitted to analysis for the prodrug and parent drug using a validated LC-MS-MS assay. Pharmacokinetic parameters derived from the plasma analytical were determined using Win Nonlin."}, "[1]": {"experiment": "Systemic availability of mexiletine in the dog from mexiletine prodrugs (oral gavage)", "format": "in vivo", "conditions": "1 mg/kg mexiletine free base, plasma mexiletine", "experimental": "Test substances (i.e., mexiletine, and various mexiletine amino acid prodrugs) were administered by oral gavage to groups of two or some cases five dogs. The characteristics of the test animals are set out in Table 6.\nBlood samples were taken at various times after administration and submitted to analysis for parent drug using a validated LC-MS-MS assay. Pharmacokinetic parameters derived from the plasma bioanalytical data were determined using Win Nonlin."}, "patients": {"system": "patients", "conditions": "especially at higher doses; cited from earlier work"}, "[2]": {"conditions": "in vivo; cited from earlier work"}, "[3]": {"experiment": "Systemic availability of mexiletine in the cynomolgus monkey from mexiletine prodrugs (oral gavage)", "format": "in vivo", "conditions": "1 mg/kg mexiletine free base, plasma mexiletine", "experimental": "Test substances (i.e., mexiletine, and various mexiletine amino acid prodrugs) were administered by oral gavage to groups of two and, in one case, five male cynomolgus monkeys. Blood samples were taken at various times after administration and submitted to analysis for the parent drug using a validated LC-MS-MS assay. Pharmacokinetic parameters derived from the plasma bioanalytical data were determined using Win Nonlin."}, "[4]": {"conditions": "individual animals, hydrochloride"}},
  "note": "Where “and” joins values, the source holds several entries; their conditions need not be identical. Equal values may be shown once. Marks after values point to notes of the source that are not given here.",
  "data": [
    {"smiles": "Cc1cccc(C)c1OCC(C)N.Cl", "note": "(racemic) [Mexiletine hydrochloride, (rac)-1-(2,6-dimethylphenoxy)-2-propanamine hydrochloride]", "values": [
      {"measurement": "AUC", "setting": "in vivo; male, Sprague Dawley, in vivo, po, 5 mg, AUC of mexiletine, mean, mean (values with extrapolated AUC > 25% omitted)", "value": 14.3, "unit": "ng·h/mL"},
      {"measurement": "Cmax", "setting": "in vivo; male, Sprague Dawley, in vivo, po, 5 mg, Cmax of mexiletine, mean", "value": 7.29, "unit": "ng/mL"},
      {"measurement": "Tmax", "setting": "in vivo; male, Sprague Dawley, in vivo, po, 5 mg, median, median value", "value": 30, "unit": "min"},
      {"measurement": "Tmax", "setting": "in vivo; male, Sprague Dawley, in vivo, po, 5 mg, individual animals", "value": 30, "unit": "min"},
      {"measurement": "half-life", "setting": "in vivo; male, Sprague Dawley, in vivo, po, 5 mg, t 1/2 of mexiletine, mean, ln2/mean k", "value": 72, "unit": "min"},
      {"measurement": "AUC of mexiletine", "setting": "in vivo; [4]", "value": "15.9* ng · h/mL and 15.0 ng · h/mL and 24.0* ng · h/mL and 10.6 ng · h/mL and 17.4 ng · h/mL"},
      {"measurement": "Cmax of mexiletine", "setting": "in vivo; [4]", "value": "2.68 ng/mL and 7.33 ng/mL and 11.0 ng/mL and 5.26 ng/mL and 10.2 ng/mL"},
      {"measurement": "T>50% Cmax of mexiletine", "setting": "in vivo; [4]", "value": "4.0 h and 1.5 h (2×) and 1.3 h and 1.2 h"},
      {"measurement": "Tmax of mexiletine", "setting": "in vivo; [4]", "value": 15, "unit": "min"},
      {"measurement": "t 1/2 of mexiletine", "setting": "in vivo; [4]", "value": "4.3* h and 1.4* h and 1.1 h"},
      {"measurement": "T>50% Cmax of mexiletine, median", "setting": "in vivo; median value, hydrochloride", "value": "1.5 h and 1.5^a h"},
      {"measurement": "T50% Cmax", "setting": "[1]", "value": 6.25, "unit": "h"},
      {"measurement": "Patients with adverse GI events", "setting": "patients", "value": "up to 38%"},
      {"measurement": "Half life", "setting": "[2]", "value": 720, "unit": "min"},
      {"measurement": "T50% Cmax", "setting": "[3]", "value": 3.94, "unit": "h"}
    ]}
  ]
}
